## AlphaSeq binding of Ab-14 heavy chain variants to a spike HR2 peptide

Antigen: PDVDLGDISGINAS, a 14-residue peptide of the SARS-CoV-2 spike HR2 region.

Ab-14 is the parent antibody, in scFv form: VH, then the linker GGGGSGGGGSGGGGS, then VL. The light chain is unchanged in all variants.
VH: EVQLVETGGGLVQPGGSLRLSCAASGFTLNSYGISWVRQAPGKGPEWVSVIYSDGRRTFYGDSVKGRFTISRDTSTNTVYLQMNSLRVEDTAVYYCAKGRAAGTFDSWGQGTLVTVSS
VL: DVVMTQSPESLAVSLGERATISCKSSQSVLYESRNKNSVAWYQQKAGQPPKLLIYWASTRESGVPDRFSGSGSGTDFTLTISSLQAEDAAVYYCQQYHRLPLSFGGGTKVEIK

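The starting antibody came from a phage panning campaign against this peptide. This is the validation round: designs drawn from the data on random variants, tested in the same kind of assay. Their group label is 14H_GP_HC (GP: Gaussian process model; HC: hill climbing; a sequence that several methods proposed may carry one label only). Affinity was read by AlphaSeq, a pooled yeast mating assay with surface-displayed partners. The frequency of each diploid, read from paired DNA barcodes, reflects how well the two displayed proteins bind. A regression on co-assayed BCL2-family reference pairs converts the normalised counts of each replicate to an apparent Kd. Each pool was mated in six replicate cultures.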

Changes read parent residue, position, new residue, counted from the first residue of the VH shown. Affinities are written as log10 Kd with Kd in nM; a lower number is a better binder. Replicates are averaged; those with no signal do not enter the mean. Where no diploid with the target was found in that replicate, the entry reads "n.d.": below detection, most likely a poor binder, though not proof of it. The authors' rule: three or more of the six replicates give a measured affinity, fewer mean a poor binder. Of ten entries with the parent sequence, four were seen in most replicates (averages 0.34 to 2.37), three in one and three in none, so single entries are noisy. A sequence measured in both rounds can read differently, since the two assays cover different ranges. Three control strains display no target. For all heavy chain designs, 1% of the pairings with them gave a signal, with a median of 2.08 and one signal in twenty below 0.84, so weak values seen in few replicates may be background. For each scFv, signals with the empty controls are counted beside the result, with their mean in brackets.

changes	log10 Kd (nM) by replicate	mean log10 Kd (nM)	control signals
S31D/F59W/A101Q	1.00 0.52 0.68 1.38 0.83 n.d.	0.88	0 of 18
T28D/A101D/D106E	n.d. n.d. 4.06 n.d. 3.46 3.12	3.55	1 of 18 (2.66)
S31E/G61T/D106V	n.d. n.d. n.d. n.d. n.d. 1.66	1.66	0 of 18
S31E/R100P/S107L	n.d. n.d. n.d. n.d. n.d. n.d.	n.d.	0 of 18
G61S/R100A/A101L	1.31 0.33 0.49 n.d. 0.95 2.74	1.16	0 of 18
A101V/T104S/D106T/S107T	n.d. n.d. n.d. n.d. n.d. n.d.	n.d.	0 of 18
G26H/S31E/G103V/S107F	n.d. n.d. n.d. n.d. n.d. n.d.	n.d.	0 of 18
T28D/S31E/G61Y/A101T	n.d. n.d. n.d. n.d. n.d. 0.11	0.11	0 of 18
R56M/G61S/R100M/A101T	0.14 0.23 0.18 0.14 -0.03 0.27	0.15	0 of 18
S31E/F59M/A101I	n.d. 1.26 n.d. n.d. n.d. n.d.	1.26	0 of 18
T28E/S31E/G61K	0.19 0.03 -0.17 -0.14 0.03 0.16	0.02	0 of 18
T28S/S31D/R56K/G61I	-0.11 -0.22 -0.15 -0.39 -0.19 -0.01	-0.18	0 of 18
T28G/S31Q/G61S/A101Q	0.36 -0.10 -0.17 -0.02 -0.44 -0.20	-0.09	0 of 18
G26H/S31D/F59M/G61I	n.d. n.d. n.d. n.d. n.d. n.d.	n.d.	0 of 18
T28Q/R100S	0.91 1.13 0.81 0.32 1.56 0.82	0.93	1 of 18 (2.04)
S31D/D106M/S107K	n.d. 2.34 1.12 0.40 1.05 1.13	1.21	0 of 18
R56K/G61I/A101V/D106W	n.d. n.d. n.d. n.d. n.d. n.d.	n.d.	1 of 18 (1.15)
T28S/S31E/G61T/A101F/S107N	0.26 0.61 0.00 -0.39 0.11 0.66	0.21	0 of 18
S31E/F59M/G61L/A101F	2.11 1.29 1.49 2.88 1.44 1.51	1.78	0 of 18
S31E/A101Q/S107V	0.13 -0.07 -0.02 0.10 0.25 0.51	0.15	0 of 18
T28S/S31E/G61C/R100P/S107K	n.d. n.d. n.d. n.d. n.d. n.d.	n.d.	0 of 18
F59M/G61H/R100Q/A101L	n.d. n.d. 1.21 0.92 0.99 n.d.	1.04	0 of 18
S31E/S53A/S107V	0.15 -0.49 -0.49 -0.24 -0.65 -0.25	-0.33	1 of 18 (0.15)
S31E/R100H/S107E	0.63 1.25 1.03 1.14 1.34 1.48	1.15	0 of 18
T28D/S31D/S63A/S107I	0.44 0.46 0.37 -0.31 -0.49 0.96	0.24	0 of 18
S31E/G61T/A101M/D106T	n.d. n.d. n.d. n.d. n.d. n.d.	n.d.	0 of 18
T28D/S31E/G61A/A101F	0.13 -0.15 -0.06 -0.43 -0.21 -0.22	-0.15	1 of 18 (1.89)
G61S/A101T/D106F	n.d. n.d. n.d. n.d. n.d. n.d.	n.d.	0 of 18
T28N/S63D/T104H/D106N	n.d. n.d. n.d. n.d. n.d. n.d.	n.d.	0 of 18
S31D/A101S/S107K	n.d. n.d. 1.63 n.d. n.d. n.d.	1.63	0 of 18

The 4 strongest on average among those seen in every replicate, once more:

changes	log10 Kd (nM) by replicate	mean log10 Kd (nM)	control signals
S31E/S53A/S107V	0.15 -0.49 -0.49 -0.24 -0.65 -0.25	-0.33	1 of 18 (0.15)
T28S/S31D/R56K/G61I	-0.11 -0.22 -0.15 -0.39 -0.19 -0.01	-0.18	0 of 18
T28D/S31E/G61A/A101F	0.13 -0.15 -0.06 -0.43 -0.21 -0.22	-0.15	1 of 18 (1.89)
T28G/S31Q/G61S/A101Q	0.36 -0.10 -0.17 -0.02 -0.44 -0.20	-0.09	0 of 18

Values reported by Li et al. 2023, doi:10.1038/s41467-023-39022-2 (FLAb copy).